Patent US10226464B2, “Small molecule NF-κB inhibitors” (ImmuneTarget, Inc., priority 2015, dated 2019)

Tested on: NF-κB
Assay: NF-κB GFP Assay (NFκB/Jurkat/GFP transcriptional reporter cell line)
Type: cell-based
Details: Homo sapiens; NF-κB/Jurkat/GFP reporter cells, TNF-α 5 ng/ml, 24 hours; read-out: NF-KB GFP IC50
Protocol: NFκB/Jurkat/GFP transcriptional reporter cell line was obtained from SBI System Biosciences. NF-κB/Jurkat/GFP™ Reporter cells (5×10^5 cells) were plated at a concentration of 1 million cells/ml into each well of a 24-well plate. TNF-α (5 ng/ml) was added. Compounds were added via serial dilutions to corresponding wells. After 24 hours, 100 μl of the cells were transferred to a well of a Costar® UV plate (96 well, No lid, w/ UV Transparent Flat Bottom, Corning, N.Y., Cat#3635) and the intensity of GFP fluorescence was measured (Excitation 485+/−20, Emission 528+/−20) in a Synergy™ HT Multi-Detection Microplate Reader (BioTech, Winooski, Vt.). The intensities of GFP measured were plotted against the […].

IC50: 10 µM
SMILES: COc1cc(OC)c2cc3c(=O)[nH]c(=S)nc-3oc2c1 [Compound 18, 6,8-dimethoxy-2-thioxo-2H-chromeno[2,3-d]pyrimidin-4(3H)-one]
